Source: US20130005802A1, “TREATMENT OF WNT/FRIZZLED-RELATED DISEASES” (priority 2009, published 2013)

Chains of the proteins cited; added tags and fusions are not shown. Residues count along the entry.
UniProt Q08463, 69-641: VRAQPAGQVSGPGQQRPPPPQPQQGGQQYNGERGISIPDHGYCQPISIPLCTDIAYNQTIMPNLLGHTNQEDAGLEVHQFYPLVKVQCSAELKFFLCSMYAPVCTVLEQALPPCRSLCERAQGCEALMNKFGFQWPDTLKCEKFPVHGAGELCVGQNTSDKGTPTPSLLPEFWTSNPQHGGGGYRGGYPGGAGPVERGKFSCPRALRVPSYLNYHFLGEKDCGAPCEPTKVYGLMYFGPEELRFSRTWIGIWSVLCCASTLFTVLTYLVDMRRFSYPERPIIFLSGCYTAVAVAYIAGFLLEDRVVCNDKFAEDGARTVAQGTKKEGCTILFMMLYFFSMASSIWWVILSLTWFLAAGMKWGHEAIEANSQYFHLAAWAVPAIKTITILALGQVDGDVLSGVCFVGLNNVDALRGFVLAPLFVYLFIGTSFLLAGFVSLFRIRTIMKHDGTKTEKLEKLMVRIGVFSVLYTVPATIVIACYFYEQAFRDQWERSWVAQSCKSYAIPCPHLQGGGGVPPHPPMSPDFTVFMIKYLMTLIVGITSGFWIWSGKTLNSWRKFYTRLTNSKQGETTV

Target: Frizzled1-GFP (Rattus norvegicus, UniProt Q08463)
Assay: Image-based Frizzled1-GFP internalization assay (primary screening assay) in Fzd1GFP-U2OS cells
Type: cell-based
Conditions: 12.5 μM, 6 hr, 37° C., scored visually
Method: To obtain a Frizzled1-GFP stable cell line (Fzd1GFP-U2OS), U2OS cells were transfected with pCS2ratFrizzled1-GFP and pLKO.1 (10:1 ratio by weight), using the Nucleofection transfection protocol from Amaxa, and stable receptor expressing clones were selected using 1.5 μg/mL puromycin in the culture medium. For generating TOPFlash stable cell lines, HEK293 cells were transfected with p8xTOPFlash, the Renilla luciferase plasmid, and pLKO.1 at a ratio by weight of 10:3:1 and stable clones selected using 1 μg/mL puromycin in the growth medium. pLKO.1 was used to confer puromycin resistance to the stable clones.
The plates were incubated overnight at 37° C. in 5% CO2. […]
To measure the number of the internalized vesicles per cell, cytosol was carefully traced to exclude cell membrane. […] The number of internalized vesicles per cell was counted by the Metamorph software. More than 30 cells per sample were analyzed to obtain statistical significance. […]
To determine the time-course of internalization for Frizzled1-GFP receptors, the accumulation of cytosolic puncta/vesicles was measured (FIG. 4A-4E). Internalization was assessed by counting the number of Frizzled1-GFP containing vesicles in the cytosol using the computer program Metamorph, and the results are presented in the graph for the given times (0 hr, n=51 cells; 1 hr, n=69; 2 hr, n=32; 4 hr, n=55, and 6 hr, n=61). […]

In the case of Thiethylperazine malate, the “Internalization Score (+ to +++, low to high)” value is reported as “+”.
